# Test system: SERT protein expression
# Experiment: Immunoblotting of SERT protein expression in HEK-hSERT cells
# Assay type: cell-based, human
# Settings: 10^−6 M, 24 hours
structure (smiles),measurement,value
CNCCC(Oc1ccc(C(F)(F)F)cc1)c1ccccc1 (stereo not shown) [fluoxetine],Change in SERT protein expression in response to chronic fluoxetine treatment,no changes
